Measured values from US20130150294A1.

Target: Src of LLC-PK1 cells (endogenous) (pig) (UniProt K7GM45)
Assay: pixel analysis of double immunostaining, confocal microscopy, LLC-PK1 cells

- percent of Na+/K+-ATPase in the plasma membrane colocalized with Src: 25.2%
Substance: Na+/K+-ATPase α1 of LLC-PK1 cells (endogenous) (from UniProt P05024 1-1021) (enzyme)
